## Apparent affinities of Ab-14 variants for a coronavirus HR2 peptide

The target is the same throughout: PDVDLGDISGINAS, from the HR2 region of SARS-CoV-2 spike.

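The parent was found by panning a naive human phage display library on the peptide. The variants were designed computationally from a first round of random CDR variants and then made and measured. Group labels follow the data file (Ctrl: baseline library sampled from a position-specific scoring matrix, with some repeated check sequences; En: ensemble of fine-tuned language models; HC: hill climbing; Gen: genetic algorithm; Gibbs: Gibbs sampling; a sequence that several methods proposed may carry one label only). AlphaSeq pools MATa yeast showing the antibodies with MATalpha yeast showing the peptide. Mating (16 h, 30 °C) was followed by selection of diploids and sequencing of their barcodes. Each replicate has its own calibration line, from reference interactions of the BCL2 family. Mating was done six times.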

Each scFv is VH, a (GGGGS)3 linker, VL, as in the parent Ab-14, and differs from it in the CDRs of the heavy chain only.
VH: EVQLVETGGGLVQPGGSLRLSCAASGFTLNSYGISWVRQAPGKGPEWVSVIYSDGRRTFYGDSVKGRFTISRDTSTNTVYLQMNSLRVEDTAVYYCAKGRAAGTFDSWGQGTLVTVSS
VL: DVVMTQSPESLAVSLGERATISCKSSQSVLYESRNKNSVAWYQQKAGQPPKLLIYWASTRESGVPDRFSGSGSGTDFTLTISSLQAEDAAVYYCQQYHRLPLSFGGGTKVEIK

The parent's heavy chain CDRs are GFTLNSYGIS, VIYSDGRRTFYGDSVK, GRAAGTFDS; each variant's own CDRs replace them letter for letter.
This list holds designs with more than six substitutions.
Values are apparent Kd, the geometric mean of the replicates that gave a signal; lower means stronger binding.
"nd" means that the variant was in the library but no mating with the target was seen in any replicate; the authors take this as a sign of poor binding, and no number exists.

GFSLEEYGIS | VIYADGMRTNYAEAVK | GNFDLQEGY [En_Gibbs]: nd (0 of 6 replicates).
GFDLEKYGIS | VIYADGQRVSYDSSVK | GENAGYFMD [En_Gibbs]: 65 nM (2 of 6 replicates).
GFDIEEYGIS | VIYADGRRVSYSNKVK | GQNGMIGNY [En_Gibbs]: nd (0 of 6 replicates).
GFDLNEYGIS | VIYADGVRTAYVDSVK | GNNAGTFDL [En_Gen]: 240 pM (6 of 6 replicates).
GFDLEDYGIS | VIYADGRRTFYADSVK | GEIAGTFDS [En_HC]: 1.4 nM (6 of 6 replicates).
GYDLDDYGIS | VIYADGKRTSYAEDVK | GLIGGSLSN [En_Gibbs]: nd (0 of 6 replicates).
GFNLNEYGIS | VIYFDGLRTQYGDSVK | GRAAGHFDA [Ctrl]: nd (0 of 6 replicates).
GFDLNEYGIS | VIYADGRRTAYADDVK | GNNAGTFDL [En_Gen]: 550 pM (6 of 6 replicates).
GFDLNEYGIS | VIYADGMRTFYADDVK | GNNAGTFDL [En_Gen]: 240 pM (6 of 6 replicates).
GFWLDEYGIS | VIYADGKRTAYKNSVK | GQFTYNFDV [En_Gibbs]: nd (0 of 6 replicates).
GFDINEYGIS | VIYADGVRSAYAQQVK | GHGEVVSMD [En_Gibbs]: nd (0 of 6 replicates).
GFDLNEYGIS | VIYADGRRTFYADSVK | GKNAGTFDI [En_HC]: 1.1 nM (6 of 6 replicates).
GFDLEDYGIS | VIYADGRRQQYAQKFK | GTIGGTFVD [En_Gibbs]: 11 nM (5 of 6 replicates).
GFDLNEYGIS | VIYADGQRTAYTDSVK | GENAGTFDI [En_Gen]: 560 pM (6 of 6 replicates).
GFFLDEYGIS | VIYADGMRTAYKDKVK | GSDTLLGWF [En_Gibbs]: nd (0 of 6 replicates).
GEDLNEYGIS | VIYADGRRTYYDNSVK | GKFTGSFFH [En_Gibbs]: nd (0 of 6 replicates).
GFNLDEYGIS | VIYADGHRTQYAQSVK | GMNNGYIAG [En_Gibbs]: nd (0 of 6 replicates).
GFDLDEYGIS | VIYADGMRTFYADSVK | GNIAGTFLV [En_HC]: 1.1 nM (6 of 6 replicates).
GFDLDEYGIS | VIYADGMRTAYSDSVK | GGNAGTFDV [En_Gen]: 350 pM (6 of 6 replicates).
GFDLNEYGIS | VIYADGLRTFYADSVK | GNVAGTFDT [En_HC]: 270 pM (6 of 6 replicates).
GFDLNEYGIS | VIYADGMRTAYADSVK | GANAGTFDL [En_Gen]: 1.1 nM (6 of 6 replicates).
GFDLNEYGIS | VIYADGVRTFYADSVK | GETAGTFDS [En_HC]: 1.1 nM (6 of 6 replicates).
GFDLNEYGIS | VIYADGMRKAYADDVK | GEVAGTFDL [En_Gen]: 11 nM (2 of 6 replicates).
GKGLDEYGVS | VIYADGKRKSYVDDVK | GGIAGQFLV [En_Gibbs]: nd (0 of 6 replicates).
GFDIQEYGIS | VIYADGRRKAYHQSVK | GAGDITAVV [En_Gibbs]: nd (0 of 6 replicates).
GFDLTEYGIS | VIYADGRRTAYQDSVK | GLNEGMLVV [En_Gibbs]: 24 nM (5 of 6 replicates).
GFVFDEYGIS | VIYADGKRQYYQDKVK | GENTGNFDT [En_Gibbs]: nd (0 of 6 replicates).
GFDLNEYGIS | VIYADGQRKAYADSVK | GQNAGTFDV [En_Gen]: 180 pM (6 of 6 replicates).
GFDLNEYGIS | VIYADGVRTAYSDDVK | GNVAGTFDI [En_Gen]: 82 pM (6 of 6 replicates).
GFDLNEYGIS | VIYADGKRYHYQDSVK | GGVVGSVLY [En_Gibbs]: nd (0 of 6 replicates).
GFDLAEYGIS | VIYADGMRNAYATNVK | GYFGGNIMY [En_Gibbs]: 11 nM (5 of 6 replicates).
GFDLNEYGIS | VIYADGQRTFYTDSVK | GGNAGTFDS [En_HC]: 2.8 nM (6 of 6 replicates).
GFDLNEYGIS | VIYADGMRTAYTDSVK | GNNAGTFDT [En_Gen]: 1.6 nM (6 of 6 replicates).
GFDLDEYGIS | VIYADGMRTAYSDSVK | GSNAGTFDI [En_Gen]: 870 pM (6 of 6 replicates).
GFDLNEYGIS | VIYADGMRTFYSDSVK | GQTAGTFDA [En_HC]: 340 pM (6 of 6 replicates).
GFDLNEYGIS | VIYADGVRTFYADSVK | GENAGTFDI [En_Gen]: 990 pM (6 of 6 replicates).
GFDLNEYGIS | VIYADGRRTMYADSVK | GEVAGTFNS [En_HC]: 160 pM (6 of 6 replicates).

The first 2 entries again:

The variant GFSLEEYGIS | VIYADGMRTNYAEAVK | GNFDLQEGY [En_Gibbs] gave nd (0 of 6 replicates).
The variant GFDLEKYGIS | VIYADGQRVSYDSSVK | GENAGYFMD [En_Gibbs] gave 65 nM (2 of 6 replicates).

A sequence measured in both rounds can read differently, since the two assays cover different ranges.
The authors averaged sequences with at least three values out of six and counted those with two or fewer as poor binders.
Nonspecific signal, from three strains lacking the peptide, appeared in 1% of pairings of all heavy chain designs, centred on 120 nM (5% of these signals below 7.0 nM); values are not corrected for it.

The measurements come from Li et al. 2023 (doi:10.1038/s41467-023-39022-2) through the FLAb antibody collection.